Here are results for one compound from BindingDB's records for doi:10.1016/0014-2999(96)00428-1 (Glaxo Research & Development, 1996).

The chains behind the UniProt entries cited, without tags or fusion partners.
UniProt Q5PPG3, whole entry: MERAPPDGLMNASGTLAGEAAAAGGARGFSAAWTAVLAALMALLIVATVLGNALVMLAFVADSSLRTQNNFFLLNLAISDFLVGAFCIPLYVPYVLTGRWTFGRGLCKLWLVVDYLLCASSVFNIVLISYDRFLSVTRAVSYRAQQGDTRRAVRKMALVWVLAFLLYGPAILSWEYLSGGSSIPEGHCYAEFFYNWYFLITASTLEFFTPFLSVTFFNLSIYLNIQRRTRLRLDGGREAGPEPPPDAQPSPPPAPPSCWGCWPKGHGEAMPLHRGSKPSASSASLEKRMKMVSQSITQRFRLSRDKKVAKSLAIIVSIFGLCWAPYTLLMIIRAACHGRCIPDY

The target of this assay is Hrh3 protein (Rattus norvegicus, UniProt Q5PPG3).

Several values for one entry are separate records, joined by “and”; a condition that tells them apart may be missing. Equal entries are not always repeated.

As usually defined, the Ki is the equilibrium dissociation constant of an inhibitor or competing ligand from its target. The low end stands for a stronger hold on the target, the high end for a looser hold on the target.

Take `NC(=NCc1ccc(Cl)cc1)SCCCc1cnc[nH]1` [VUF 9153]: the Ki is 0.25 nM and 0.15 nM.
